# Reference: patent publication US20070004039A1, “Immortalized hepatocytes” (Multicell Technologies, Inc., priority 2003, published 2007)
# Test system: Fa2N-4 cells and primary human hepatocytes
# Assay: Toxicity by LDH release and resazurin reduction, Fa2N-4 cells compared with primary human hepatocytes
substance,measurement,setting,value
Hyperforin,sensitivity of Fa2N-4 cells relative to primary hepatocytes,,more sensitive than primary hepatocytes
same,Cellular Response (Fa2N-4 cells compared with primary human hepatocytes),Same or Different toxicity response in the two cell types,Different
